Measured values taken from patent publication US20120115955A1, “Methods for tumor treatment and adipogenesis differentiation” (Centro de Investigacion Principe Felipe, priority 2010, published 2012).

Test system: MALME-3M cells
Experiment: Nile-Red neutral lipid / LD quantification by flow cytometry (FL2)
Type: cell-based, human
Conditions: 12-hour incubation, data not shown
Protocol: FIG. 6. […] MALME-3M cells were cultured in the presence of 10 μg/ml of docosahexaenoic acid, 100 μg/ml of nervonic acid, 100 μg/ml of erucic acid, 10 μg/ml of arachidonic acid, 100 μg/ml of linolenic acid, 100 μg/ml of linoleic acid, 100 μg/ml of oleic acid, 100 μg/ml of palmitoleic acid, 100 μg/ml of elaidic acid, or 100 μg/ml petroselinic acid for 12 hours. Fatty acids were dissolved in DMSO; therefore the cells cultured with RPMI+10% FBS and treated with DMSO only were considered negative controls. The Nile-Red analysis was performed as described in the Material and Methods section. Quantification in the FL2 parameter was assessed by the FlowJo software. Fold induction was estimated by calculating the ratio between treated conditions and the untreated condition (control). The results are representative of three independent experiments.
Cells (10^5) were washed twice in PBS and then incubated with 25 μg/ml of Nile-Red (Invitrogen) in PBS (15 min, 4° C.). After incubation, cells were filtered through a 30 μm sieve (CellTrics, Partec). Fluorescent emission (525 nm) was registered in the FL2 channel by a Beckman Coulter Flow Cytometer (Cytomics™ FC 500). Data files were analyzed using the FlowJo flow cytometer analysis software.

## albumin: human recombinant albumin
  neutral lipids in LDs (Nile-RED), synergy test POL / recombinant albumin: presented no adipogenic properties
